Experiments:
duodenum lumen enzymes = experiment: Degradation of insulin analogs using duodenum lumen enzymes; type: in vitro ADME, SPD rats; details: rat duodenum enzymes, pH 7.4, 37° C.; for Duodenum degradation. Relative stability vs. human insulin: half time divided by half time of human insulin; for Duodenum degradation. Relative stability vs. A14E, B25H, desB30 human insulin: half time divided by half time of reference insulin
[1] = Hydrophobicity by reverse phase HPLC under isocratic conditions; type: physicochemical; details: isocratic RP-HPLC, pH 7.3; human insulin as reference (k'rel = 1)

Substance: A14E, B25H, B29K(N^εOctadecanedioyl-γGlu-Abu-Abu-Abu-Abu), desB30 Human Insulin [Example 41]
- Duodenum degradation. Relative stability vs. human insulin (duodenum lumen enzymes): 8.4
- Duodenum degradation. Relative stability vs. A14E, B25H, desB30 human insulin (duodenum lumen enzymes): .7

Substance: A14E, B25H, B29K(N^ε (N-Octadecandioyl-N-carboxymethyl)-beta-alanyl), desB30 Human Insulin [Example 6]
- Relative hydrophobicity, k'relderiv [1]: .19

Substance: A14E, B25H, B29K(N^ε(5-Eicosanedioylaminoisophthalic acid)), desB30 Human Insulin [Example 47]
- Duodenum degradation. Relative stability vs. human insulin (duodenum lumen enzymes): 7
- Duodenum degradation. Relative stability vs. A14E, B25H, desB30 human insulin (duodenum lumen enzymes): 0.6

Source: US10259856B2, “Protease stabilized acylated insulin analogues” (priority 2008, dated 2019)
